Measured values as given in patent publication US20250195513A1, “DEGRADATION OF IRAK4 BY CONJUGATION OF IRAK4 INHIBITORS WITH E3 LIGASE LIGAND AND METHODS OF USE” (BeiGene, Ltd., priority 2022, published 2025).

Chains of the proteins cited; added tags and fusions are not shown.
UniProt Q9NWZ3, whole entry: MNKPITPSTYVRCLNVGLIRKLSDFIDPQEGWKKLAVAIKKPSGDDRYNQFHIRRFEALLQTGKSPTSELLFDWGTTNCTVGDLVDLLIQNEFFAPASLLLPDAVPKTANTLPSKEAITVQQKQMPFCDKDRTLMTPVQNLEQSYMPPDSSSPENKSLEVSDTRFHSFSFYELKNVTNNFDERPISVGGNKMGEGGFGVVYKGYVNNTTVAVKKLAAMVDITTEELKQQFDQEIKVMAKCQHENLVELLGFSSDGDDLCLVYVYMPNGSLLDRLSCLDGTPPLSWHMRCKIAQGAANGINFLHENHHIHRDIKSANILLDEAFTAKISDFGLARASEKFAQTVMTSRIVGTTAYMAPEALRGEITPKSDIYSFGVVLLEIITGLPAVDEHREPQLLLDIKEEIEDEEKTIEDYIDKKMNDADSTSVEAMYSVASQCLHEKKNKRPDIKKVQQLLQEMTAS

Target: IRAK4 (Homo sapiens, UniProt Q9NWZ3)
Assay: IRAK4 Degradation Assay (Karpas299, HTRF/TR-FRET)
Settings: Karpas-299 cells, 24 h treatment
Procedure: IRAK4 degradation was measured using a TR-FRET-based method (Degorce, François, et al. Current chemical genomics. 2009, 3: 22). Karpas299 maintained in RPMI 1640 medium (Thermo Scientific) supplemented with 20% fetal bovine serum (FBS, Thermo Scientific), 100 units/mL penicillin and 0.1 mg/mL streptomycin (Thermo Scientific) were seeded into 96-well plates at the density of 0.2 million cells per well and then treated with a series dilution of compounds. After 24 hours or 5 hours treatment, cells were pelleted via centrifugation and 40 μL lysis buffer (Cisbio) was added to each well after removal of the supernatant. Plates were then incubated at room temperature with shaking for 30 minutes. […] IRAK4 level was quantitated using the HTRF kit as described by the manufacturer manual (Cisbio). FRET signals were measured using a PHERAstar FSX reader (BMG Labtech).
After treatment, add HTRF lysis buffer to each well; seal the plate and incubate 1 hour at room temperature on a plate shaker; Once the cells are lysed, 16 μL of cell lysate are transferred to a PE 384-well HTRF detection plate; 4 μL of pre-mixed HTRF antibodies are added to each well; Cover the plate with a plate sealer, spin 1000 rpm for 1 min, Incubate overnight at room temperature; Read on BMG PheraStar with HTRF protocol (337 nm-665 nm-620 nm). […]

COc1cc2nn([C@H]3CC[C@H](NC(=O)[C@H]4CC[C@H](Oc5cc(F)c(C6CCC(=O)NC6=O)c(F)c5)CC4)CC3)cc2cc1NC(=O)c1cccc(C(F)(F)F)n1 (some centres unmarked)
IRAK4 in Karpas-299 (24 h) Dmax (%) (maximum percentage of degradation): 97%
DC50 (read-out: IRAK4 in Karpas-299 (24 h) DC50): 17 nM
